Source: PubChem (National Center for Advancing Translational Sciences (NCATS))
In the library only some 2.2% were active in any assay of this set; here they are far more common.
Nrf2 inh: inhibitors of Nrf2 signaling; Potency, µM (highest dose often 46 µM), for inactives: at the highest dose activity change, negative = inhibition, most hits filed as inhibitors; A549 ARE-Fluc reporter, luciferase luminescence, 18-24 h; hit rate 2.1% among 360,000; also: potency is read from the fitted curve at half-maximal effect; % is scaled to controls: 0 for no effect and ±100 for the full control effect; nearly all actives have a fitted effect of over 60% in size
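Cells were seeded and rested 2 h, then exposed to compounds for 18-24 h. CellTiter-Fluor was read first as a viability measure. BugLite was added 15 min before the final luminescent read of ARE-luciferase activity in A549 cells.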
A549 viability: kills or reduces viability of A549 cells in Nrf2 counter-screen | A549 ARE-Fluc cells, CellTiter-Fluor viability, 18-24 h | Potency, µM (top dose mostly 46 µM), without a hit: at the highest dose activity change, negative = cytotoxicity, actives largely listed as inhibitors | hit rate 0.16% among 390,000 | AID 504648; also: potency is read from the fitted curve at half-maximal effect; % is scaled to controls: 0 for no effect and ±100 for the full control effect
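A549 ARE_Fluc cells in 5% FBS OPTI-MEM were exposed to compounds in concentration-response for 18-24 h at 37 deg C. Viability was read by CellTiter-Fluor fluorescence (Ex 405/Em 525) after 30 min, before the luciferase read.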
miR-21 FLuc: raises the signal of a miR-21 reporter | HeLa miR-21 FLuc reporter, luciferase, 48 h | 340,000 tested, under 10 active | Potency, µM (titrated, usually from 38.3 µM), inactives show at the highest dose reporter change, positive = more light; active = well fitted rising curve with a large enough effect; inconclusive = small, poorly fitted or top-dose-only effect; inactive = no such curve, though single readings can be large or run the other way;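 further: % of control where 0% means no effect; miR-21 action dims this reporter so a rising signal means less miR-21 action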
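Compounds were titrated across several concentrations (up to approximately 40 uM) and incubated 48 hours with HeLa miR-21-FLuc reporter cells (miR-21 target sequence downstream of FLuc, endogenous miR-21). Readout was firefly luciferase luminescence after lytic detection reagent.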
GALK inh: inhibitors of human galactokinase. AID 1868. Purified GALK, Kinase-Glo residual ATP luminescence. Potency, µM (highest dose often 57.5 µM), inactives show at the top dose activity change, negative = inhibition, actives largely listed as inhibitors. hit rate 0.007% among 270,000; also: potency is read from the fitted curve at half-maximal effect; % is scaled to controls: 0 for no effect and ±100 for the full control effect
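The enzyme phosphorylates galactose (100 uM) using ATP (35 uM); inhibition is detected as higher residual ATP, quantified by bioluminescence after 1 h reaction at room temperature, pH 8.0.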
PI4K2A block: inhibitors of human PI4K2A; hit rate 0.13% among 420,000; AID 1346378; Q9BTU6; purified PI4K2A, ADP-Glo luminescence, 1 h; stronger effect = lower value; activity change, negative = inhibition, % at 76.9 µM; in the data active = activity change below about -50%; inconclusive = mostly about -30% to -49%;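 also: -100% = wells without enzyme as full effect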
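In this quantitative HTS, ADP production by PI4K2A was quantified luminescently after 1 h at ambient temperature; 100 microM adenosine served as plate-quality control.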
Nrf2 activator: Nrf2 pathway activation; hit rate 0.31% among 410,000; Potency, µM (top dose mostly 46.1 µM), inactives show at the top dose activation, hits mostly activators; AID 624171; AREc32 ARE-luciferase reporter (MCF7-derived line), luminescence, 24 h; also: potency is read from the fitted curve at half-maximal effect; % of control where 0% means no effect; nearly all actives have a fitted effect of over 65% in size
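Reporter line AREc32 (ARE-Fluc), seeded overnight in OPTI-MEM with 5% FBS; compound pin-transferred, 24 hr at 37 deg C, 5% CO2; luminescent read-out.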
* hit, by the source's call. Unless noted, calls follow the shape of the dose curve; as a rule, active = well fitted curve in the direction sought with a large enough effect; inconclusive = small, poorly fitted or top-dose-only effect, or another doubt; inactive = no such curve, though single readings can be large; an effect the other way counts as inactive or inconclusive.

Results for CCOC(=O)/C=C1\CN(Cc2cc(OC)c(OC)c(OC)c2)S(=O)(=O)c2ccccc21 ?
Nrf2 inh: inconclusive; A549 viability: -9.2%; miR-21 FLuc: 14.7%; PI4K2A block: -3.6; Nrf2 activator: 5.9%

How did CCOC(=O)/C=C1\CN(Cc2cc(OC)c(OC)c(OC)c2)S(=O)(=O)c2ccc(C(F)(F)F)cc21 do in these assays?
Nrf2 inh: 20.6µM*; A549 viability: 0.0%; miR-21 FLuc: 14.4%; PI4K2A block: -7.6; Nrf2 activator: 2.3%

What do the screens show for `O=C(CSc1nnc(COc2ccccc2)n1Cc1ccco1)Nc1ccc(OCc2ccccc2)cc1`?
PI4K2A block: -0.3

Results for O=C(CCS(=O)(=O)c1ccc(Br)s1)Nc1cc(C(F)(F)F)cc(C(F)(F)F)c1 ?
Nrf2 inh: 23.1µM*; A549 viability: inconclusive; miR-21 FLuc: 8.8%; PI4K2A block: -3.1; Nrf2 activator: -3.1%

How did Nn1c(SCC(=O)NC2CCCCC2)nnc1-c1cc(-c2ccc(Cl)cc2)n[nH]1 do in these assays?
PI4K2A block: -9.3

How did CS(=O)(=O)N1CCc2cc(C(=O)Nc3ccc(C(F)(F)F)cc3)ccc21 do in these assays?
Nrf2 inh: inconclusive; A549 viability: inconclusive; miR-21 FLuc: 28.1%; PI4K2A block: -3.6; Nrf2 activator: 1.3%

What do the screens show for `CS(=O)(=O)N1CCc2cc(C(=O)Nc3ccc(Cl)c(C(F)(F)F)c3)ccc21`?
Nrf2 inh: 20.6µM*; A549 viability: -27.4%; miR-21 FLuc: inconclusive; PI4K2A block: 0.4; Nrf2 activator: -0.5%

Results for CCC(=O)N1CCc2cc(S(=O)(=O)CCC(=O)Nc3ccc(Cl)c(C(F)(F)F)c3)ccc21 ?
Nrf2 inh: 20.6µM*; A549 viability: -1.6%; miR-21 FLuc: inconclusive; PI4K2A block: 2.3; Nrf2 activator: 23.4%

Results for CCn1c(=O)n2n(c1=O)[C@H]1C[N+](Cc3ccc4c(c3)OCO4)=C(N)NC1=C(C)C2 ?
PI4K2A block: -2.5

Results for C=CCc1cccc(C=Nc2c[nH]c(=O)[nH]c2=O)c1O ?
Nrf2 inh: -18.8%; A549 viability: -15.9%; miR-21 FLuc: -2.5%; GALK inh: -7.9%; PI4K2A block: inconclusive; Nrf2 activator: -0.3%

Results for C=CCc1cccc(C=Nc2cc(Br)ccc2O)c1O ?
Nrf2 inh: inconclusive; A549 viability: -16.6%; miR-21 FLuc: 0.8%; PI4K2A block: 0.8; Nrf2 activator: 6.31µM*

How did Cc1coc2ccccc2c1=O do in these assays?
PI4K2A block: 1.1

Results for Cc1ccc(C(C(=O)Nc2ccc3c(c2)OCO3)N(C)C(=O)Cc2c[nH]c3ccccc23)cc1 (stereo not drawn) ?
Nrf2 inh: 23.1µM*; A549 viability: inconclusive; miR-21 FLuc: 2.2%; GALK inh: -0.2%; PI4K2A block: -0.8; Nrf2 activator: -0.2%

What do the screens show for `CC(=O)NC(Cc1c[nH]c2ccccc12)C(=O)OCC(=O)Nc1ccc2c(c1)OCO2` (stereo not drawn)?
A549 viability: 16.6%; miR-21 FLuc: 14.1%; GALK inh: 3.7%; PI4K2A block: -8.7; Nrf2 activator: 0.5%

How did Cc1ccccc1Cn1cc(NC(=O)c2cc3nc(-c4ccco4)cc(C(F)(F)F)n3n2)cn1 do in these assays?
Nrf2 inh: inconclusive; A549 viability: -2.4%; miR-21 FLuc: -7.3%; GALK inh: -1.3%; PI4K2A block: -0.9; Nrf2 activator: -0.4%

Results for CCc1ccc(-c2cc(C(F)(F)F)n3nc(C(=O)Nc4cnn(Cc5ccc(C)cc5)c4)cc3n2)s1 ?
Nrf2 inh: 8.2µM*; A549 viability: 25.9µM*; miR-21 FLuc: -0.5%; GALK inh: 2.0%; PI4K2A block: 2.6; Nrf2 activator: 0.3%

What do the screens show for `CCc1nn2c(=O)cc(-c3ccncc3)nc2s1`?
Nrf2 inh: -29.1%; A549 viability: 4.7%

Fetched one by one from the list above, two records:
How did CS(=O)(=O)N1CCc2cc(C(=O)Nc3ccc(C(F)(F)F)cc3)ccc21 do in these assays?
Nrf2 inh: inconclusive; A549 viability: inconclusive; miR-21 FLuc: 28.1%; PI4K2A block: -3.6; Nrf2 activator: 1.3%

Results for Cc1ccc(C(C(=O)Nc2ccc3c(c2)OCO3)N(C)C(=O)Cc2c[nH]c3ccccc23)cc1 (stereo not drawn) ?
Nrf2 inh: 23.1µM*; A549 viability: inconclusive; miR-21 FLuc: 2.2%; GALK inh: -0.2%; PI4K2A block: -0.8; Nrf2 activator: -0.2%
